Results reported in PubChem BioAssay AID1970 (National Center for Advancing Translational Sciences (NCATS), 2009).
The list shows a part of the results, in another mix than the full data. Records with an inconclusive call do not appear. Active and inactive are the calls of the source. Calls come from the whole dose curve; as a rule, active = well fitted inhibition curve with a large enough effect; inconclusive = small, poorly fitted or top-dose-only effect; inactive = flat fitted curve, though single readings scatter.

Protein sequences, listed by entry. Tags and fused reporters are not part of them. Lines headed by an entry give the natural chain unless they say otherwise; changes in a name come on top.
UniProt Q9HAZ1: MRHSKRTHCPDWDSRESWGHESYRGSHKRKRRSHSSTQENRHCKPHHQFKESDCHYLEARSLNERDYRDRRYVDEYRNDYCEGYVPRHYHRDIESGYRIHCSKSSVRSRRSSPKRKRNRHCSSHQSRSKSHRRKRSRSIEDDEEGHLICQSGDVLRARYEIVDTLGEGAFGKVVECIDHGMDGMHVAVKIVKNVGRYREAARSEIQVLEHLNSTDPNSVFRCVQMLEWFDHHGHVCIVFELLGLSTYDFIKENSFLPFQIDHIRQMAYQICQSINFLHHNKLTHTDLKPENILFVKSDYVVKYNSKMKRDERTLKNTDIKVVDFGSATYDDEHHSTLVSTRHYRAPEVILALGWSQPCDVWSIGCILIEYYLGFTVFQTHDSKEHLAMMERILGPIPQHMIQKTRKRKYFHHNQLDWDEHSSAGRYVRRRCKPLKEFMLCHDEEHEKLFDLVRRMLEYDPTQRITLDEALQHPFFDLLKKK

Molecular target: Dual specificity protein kinase CLK4 (Homo sapiens) (UniProt Q9HAZ1)
Experiment: Confirmation Assay for Inhibitors of CDC-like Kinase 4 (Kinase-Glo Assay)
Details: recombinant Clk4, Kinase-Glo ATP depletion luminescence
Method: NIH Molecular Libraries Probe Production Centers Network [MLPCN] NIH Chemical Genomics Center [NCGC] MLPCN Grant: 1R03MH084827-01 Assay Submitter (PI): Tom Misteli NCGC Assay Overview: Clk4 (Invitrogen, cat# PV3839) was assayed using ATP and the RS repeat peptide (AnaSpec cat # 61722) as substrates. Following the Clk4 reaction, the remaining ATP levels were detected using Promega Kinase-Glo technology wherein the remaining ATP from the kinase reaction is detected using Ultra-Glo luciferase and D-luciferin which generates a bioluminescence signal from the ATP. The positive control for the assay was TG003 (Sigma-Aldrich, cat# 300801-52-9) which has been described as an inhibitor of Clk 4[1].
NCGC Assay Protocol Summary: Two uL/well of substrate-buffer solution (100 uM RS peptide, 1 uM ATP, 25 mM Tris pH7.5, 10 mM MgCl2, 0.5 mM EGTA, 2.5 mM DTT, 0.01% Triton X-100 final concentration) was dispensed into 1536-well, assay plates (Greiner, solid white medium-binding plates) with Aurora Discovery BioRAPTR Flying Reagent Dispenser (FRD; Beckton-Dickenson). Using a Kalypsys pin tool equipped with a 1536-pin tool, 23 nL of compound solution was transferred to the assay plate. […] Luminescence was detected with the ViewLux plate reader (Perkin Elmer, Waltham, MA) after 5 min incubation using a 5 second exposure time and 2x binning.

CCN1/C(=C/C(C)=O)Sc2ccc(OC)cc21
Potency: active: 33.6 nM
